Data taken from ChEMBL document CHEMBL3745652, “Synthesis and evaluation of pretomanid (PA-824) oxazolidinone hybrids” (Bioorg Med Chem Lett, 2016).

Experiment: in vitro
Conditions: monkey, Vero cells

Compound: O=[N+]([O-])c1cn2c(n1)OC[C@@H](OCc1ccc(N3CCCCC3)c(F)c1)C2
- selectivity ratio: > 1000
